Consider one molecule from publication PMC9731851, “Enhancing interaction of actin and actin-binding domain 1 of dystrophin with modulators: Toward improved gene therapy for Duchenne muscular dystrophy” (The Journal of Biological Chemistry, 2022).

The target in the test is phalloidin-stabilized F-actin (rabbit, UniProt P68135 1-377). Briefly: co-sedimentation; 5 μM hDYS-ABD1 with phalloidin-stabilized F-actin (0–80 μM), with 100 μM cisplatin or 1% DMSO; F-buffer 10 mM Tris pH 7.5, 50 mM KCl, 0.2 mM ATP, 3 mM MgCl2, 0.5 mM DTT; 25 °C 30 min; centrifuged at 50K 30 min; SDS-PAGE of supernatant and pellet. Particulars: both partners purified.

B1: human dystrophin actin-binding domain 1 fused to mClover3 (hDYS-ABD1-mClover3) (domain or fragment)
chain: MLWWEEVEDCYEREDVQKKTFTKWVNAQFSKFGKQHIENLFSDLQDGRRLLDLLEGLTGQKLPKEKGSTRVHALNNVNKALRVLQNNNVDLVNIGSTDIVDGNHKLTLGLIWNIILHWQVKNVMKNIMAGLQQTNSEKILLSWVRQSTRNYPQVNVINFTTSWSDGLALNALIHSHRPDLFDWNSVVCQQSATQRLEHAFNIARYQLGIEKLLDPEDVDTTYPDKKSILMYITSLFQVLPQQVSIE
notes: The introduction gives ABD1 as residues 1-246 of dystrophin in general; mClover3 (FRET donor) is fused to the C-terminus of ABD1; Cloned into pDT68 (pET-derived, N-terminal 6His then Sumo); also called mClover3-ABD1; dystrophin ABD1; source: E. coli BL21, purified (NiNTA, ULP1 cleavage of 6His-Sumo, size-exclusion chromatography); not shown: 6His, N-terminal, cleaved; Sumo, N-terminal, cleaved; …
On to B1, for which the “fold difference of kD from the hyperbolic fits, cisplatin against DMSO” value is 1.7 fold.
